# Only a part is listed here, and it is no random draw. Calls of active or inactive are those of the source. Cut-off read from the data, not from the text of the source: active = inhibition above about 9.5%; inactive = the rest.
# The chains behind the UniProt entries cited, without tags or fusion partners.
# UniProt P19174, whole entry: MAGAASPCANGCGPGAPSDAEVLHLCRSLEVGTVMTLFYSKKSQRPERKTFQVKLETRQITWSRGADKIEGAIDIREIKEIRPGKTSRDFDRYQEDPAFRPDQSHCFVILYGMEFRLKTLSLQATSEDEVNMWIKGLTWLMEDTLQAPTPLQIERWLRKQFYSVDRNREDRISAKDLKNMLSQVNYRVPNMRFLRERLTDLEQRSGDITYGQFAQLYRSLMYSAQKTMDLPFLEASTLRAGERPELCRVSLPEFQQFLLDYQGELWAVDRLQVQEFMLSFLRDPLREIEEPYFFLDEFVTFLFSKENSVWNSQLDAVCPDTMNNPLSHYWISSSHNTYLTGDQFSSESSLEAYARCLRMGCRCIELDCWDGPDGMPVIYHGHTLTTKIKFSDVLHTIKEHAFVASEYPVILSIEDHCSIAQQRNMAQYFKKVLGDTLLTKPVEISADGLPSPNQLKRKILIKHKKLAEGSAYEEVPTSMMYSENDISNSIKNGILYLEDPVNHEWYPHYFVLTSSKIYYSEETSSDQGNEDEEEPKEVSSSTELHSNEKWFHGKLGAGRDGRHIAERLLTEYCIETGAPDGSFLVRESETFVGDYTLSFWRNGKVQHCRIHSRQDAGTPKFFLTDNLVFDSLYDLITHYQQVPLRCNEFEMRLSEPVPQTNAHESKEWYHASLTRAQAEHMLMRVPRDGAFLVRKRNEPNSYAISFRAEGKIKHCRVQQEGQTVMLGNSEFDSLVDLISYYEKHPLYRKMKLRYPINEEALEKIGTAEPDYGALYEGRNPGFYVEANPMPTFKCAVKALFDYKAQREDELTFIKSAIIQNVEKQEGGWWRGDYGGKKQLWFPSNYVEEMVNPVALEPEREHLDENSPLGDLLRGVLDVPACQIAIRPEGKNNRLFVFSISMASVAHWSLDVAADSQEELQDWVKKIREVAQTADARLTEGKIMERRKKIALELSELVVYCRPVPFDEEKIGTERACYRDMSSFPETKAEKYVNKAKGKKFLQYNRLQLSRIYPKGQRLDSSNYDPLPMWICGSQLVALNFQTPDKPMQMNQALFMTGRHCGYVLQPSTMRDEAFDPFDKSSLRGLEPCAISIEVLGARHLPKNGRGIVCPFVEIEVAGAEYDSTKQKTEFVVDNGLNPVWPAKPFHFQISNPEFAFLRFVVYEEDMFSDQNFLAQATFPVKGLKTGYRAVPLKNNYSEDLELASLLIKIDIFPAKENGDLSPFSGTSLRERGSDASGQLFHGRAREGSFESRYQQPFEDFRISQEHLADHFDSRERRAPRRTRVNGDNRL
# Target: 1-phosphatidylinositol 4,5-bisphosphate phosphodiesterase gamma-1 (Homo sapiens) (UniProt P19174)
# Assay: PLC-gamma1 enzyme inhibitors, counter-screen for PLC-beta3 inhibitor project, biochemical, fluorescence (AID 743258)
# Conditions: purified PLC-gamma1, fluorogenic substrate, at 12.3 µM, stronger effect = higher value
row,Structure (SMILES),inhibition
1,O=[N+]([O-])c1cc([N+](=O)[O-])c(C(F)(F)F)c([N+](=O)[O-])c1O,inactive: -2.39%

# Source: PubChem BioAssay AID743258 (The Scripps Research Institute Molecular Screening Center, 2014)
